Data taken from ChEMBL document CHEMBL1121735, “Synthesis and adrenoceptor affinity of some highly polar beta-substituted catecholamines” (J Med Chem, 1981).

Molecular target: Adrenergic receptor alpha
Assay: Binding affinity against Alpha adrenergic receptor using [3H]dihydroergocryptine radioligand in rat brain homogenate
Assay type: tissue-based

CNC[C@H](O)c1ccc(O)c(O)c1 [EPINEPHRINE]
IC50: 1.7e-8 M l-1
